Apparent affinities of Ab-95 variants for a coronavirus HR2 peptide

Target peptide (SARS-CoV-2 spike, HR2 region): PDVDLGDISGINAS

Parent scFv Ab-95: VH joined to VL by the linker GGGGSGGGGSGGGGS. Changes lie in the light chain CDRs alone.
VH: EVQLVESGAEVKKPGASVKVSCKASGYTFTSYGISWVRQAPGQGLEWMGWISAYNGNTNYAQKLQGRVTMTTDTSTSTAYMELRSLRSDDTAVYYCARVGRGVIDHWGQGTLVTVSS
VL: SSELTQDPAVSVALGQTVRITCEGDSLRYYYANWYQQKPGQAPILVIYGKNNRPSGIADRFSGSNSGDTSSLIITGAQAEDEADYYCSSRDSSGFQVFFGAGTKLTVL

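Library AAYL52 holds single substitutions and randomly drawn double and triple substitutions in the CDRs. AlphaSeq pools MATa yeast showing the antibodies with MATalpha yeast showing the peptide. Mating (16 h, 30 °C) was followed by selection of diploids and sequencing of their barcodes. The ratio of observed to expected reads was calibrated, replicate by replicate, on BCL2-family standards whose Kd was known from biolayer interferometry. Mating was done three times.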

Substitutions are numbered in sequence along the VL above, starting at 1 (not Kabat).
Scale: log10 of Kd in nM, estimated from mating counts; low values are strong binders.
The mean shown is taken over the replicates in which the pair was detected.
"ND" marks a missing value. The strain was present, yet no cells mated with the target were sequenced in that replicate, which points to weak or no binding.
Background: pairings of library AAYL52 with three empty control strains gave a value in 28% of cases (median 3.91, 5th percentile 2.90). Values in that range, when seen in few replicates, are hard to tell from nonspecific mating. The control count says in how many pairings with the empty strains this scFv gave a signal, with their mean in brackets.
In this assay the parent's reference entry averaged 2.31; its copy inside this library read 2.25.

changes	log10 Kd (nM) by replicate	mean log10 Kd (nM)	signal with controls
A32G/N33F/S88V	4.87 / ND / 3.54	4.20	4/9 (4.59)
S26L/S89H/F98R	3.91 / ND / ND	3.91	4/9 (3.65)
G49P/F95D/Q96L	4.29 / ND / ND	4.29	4/9 (3.59)
S92C	3.44 / 3.90 / 4.19	3.85	2/9 (4.03)
Y29H/Y31R/S88Q	3.44 / 2.55 / 3.19	3.06	2/9 (4.54)
S26I/N33W/K50L	3.67 / 3.79 / 3.11	3.53	5/9 (3.38)
S88D/V97R	3.45 / 4.57 / ND	4.01	4/9 (3.62)
N52H/F95Y/Q96W	3.23 / 2.63 / ND	2.93	3/9 (3.89)
G24A/D91I/Q96N	3.20 / 2.92 / 2.86	2.99	3/9 (4.48)
G24R/D25Y/V97R	ND / ND / ND	ND	1/9 (3.96)
N33L/G49T/S93I	ND / ND / ND	ND	2/9 (3.54)
D25C/R28S/V97S	4.40 / ND / 2.83	3.61	2/9 (3.95)
N33I/P54K/G94Y	ND / ND / ND	ND	1/9 (3.57)
E23Y/N33M/S93L	4.46 / ND / ND	4.46	4/9 (3.56)
E23M/Y31D	0.82 / 0.90 / 0.37	0.69	3/9 (4.09)
E23R/Y29V/S55D	2.29 / 2.36 / 2.16	2.27	3/9 (3.79)
E23C/G49C/S93V	ND / ND / ND	ND	0/9
L27C/A32D/S93M	ND / ND / ND	ND	0/9
L27W	2.32 / 2.51 / 1.81	2.21	6/9 (3.56)
G24Y/R28D/V97S	3.31 / 3.83 / 4.28	3.81	3/9 (3.18)
R28E/S93G/F98W	2.40 / 3.55 / 2.87	2.94	2/9 (2.46)
Y29I/G49T/F98K	ND / ND / ND	ND	2/9 (3.31)
A32K/S93K/G94F	ND / 3.49 / ND	3.49	0/9
R28H/G49T/S88A	ND / 3.92 / ND	3.92	0/9
G24L/Y29G/S55C	3.21 / 4.30 / ND	3.76	3/9 (3.07)
D25R/N51S/R53F	3.53 / ND / 3.97	3.75	3/9 (3.93)
G24K/K50D/V97A	1.79 / 1.89 / 1.38	1.69	1/9 (3.33)
S26Q/L27S/R53E	5.02 / 4.46 / ND	4.74	2/9 (4.63)
E23F/D25Y/F98T	5.16 / 3.71 / 3.12	4.00	2/9 (4.19)
A32L/S89G/S92W	ND / ND / ND	ND	3/9 (4.31)
Y31E/G49F/R53A	ND / 3.92 / 3.19	3.56	3/9 (3.34)
S26N/D91A/Q96P	3.24 / 3.32 / 2.89	3.15	5/9 (3.85)
N52E/F98C	3.43 / 3.44 / 3.51	3.46	2/9 (3.83)
Y30R/A32L/V97Q	2.85 / 2.99 / 2.86	2.90	0/9
Y29E/N51R/V97K	ND / ND / ND	ND	1/9 (3.02)
A32I/S88E/S92T	4.02 / 3.64 / 3.91	3.85	2/9 (3.76)
S26H/R53Y/S55L	5.13 / 4.40 / 4.67	4.73	1/9 (3.67)
P54D/S92N/F95T	2.70 / 3.34 / 2.83	2.96	3/9 (3.56)
N33G/N52D	ND / 3.90 / ND	3.90	3/9 (4.35)

From the list, the first 4 with no signal in any replicate:

changes,log10 Kd (nM) by replicate,mean log10 Kd (nM),signal with controls
G24R/D25Y/V97R,ND / ND / ND,ND,1/9 (3.96)
N33L/G49T/S93I,ND / ND / ND,ND,2/9 (3.54)
N33I/P54K/G94Y,ND / ND / ND,ND,1/9 (3.57)
E23C/G49C/S93V,ND / ND / ND,ND,0/9

Values reported by Engelhart et al. 2022, doi:10.1038/s41597-022-01779-4 (FLAb copy).